Drawing on ChEMBL document CHEMBL4627335, “Lead discovery, chemical optimization, and biological evaluation studies of novel histone methyltransferase SET7 small-molecule inhibitors” (Bioorg Med Chem Lett, 2020), this text covers Activity for one molecule.

The subject of this experiment is MCF7. Put plainly: Antiproliferative activity against human MCF7 cells expresses endogenous ER by Cell Titer-Glo based luminescence assay. The experiment is classed as functional. Background: Cellular ATP, detected with luciferase, serves as a proxy for viable cell number.

As to `COC(=O)c1ccc(C2=CC(=O)C=CC2=O)o1`, the Activity entry is “Dose-dependent effect”.
